Laboratory results as given in PubChem BioAssay AID1554 (Broad Institute, 2009).
The list shows a part of the results, in another mix than the full data. Active and inactive are the calls of the source. Cut-off read from the data, not from the text of the source: active = inhibition above about 50%; inconclusive = no clear call, values can overlap the other calls; inactive = below that.

Assay: PubChem AID 1554
Conditions: BJeLR (HRASV12) viability, CellTiter-Glo ATP luminescence, 48 h; hits give high values; concentration not given here
For O=C(/C=C/c1ccccc1)OC1CN2CCC1CC2 (centres undefined), the inhibition was inactive: -5.74%. In the case of CCOC(=O)C(CC)C1=NC(C)(C)Cc2ccccc21.O=[N+]([O-])c1cc([N+](=O)[O-])c(O)c([N+](=O)[O-])c1 (centres undefined), the inhibition is reported as inactive: -9.35%. With O=[N+]([O-])c1cc([N+](=O)[O-])c(Nc2nnnn2CCO)c([N+](=O)[O-])c1 the inhibition was inactive: 0.904%. In the case of CN(C)C1(CNC(=O)c2ccc(S(C)(=O)=O)cc2)CCCCC1, the inhibition is reported as inactive: 5.17%. With COc1cc(C2NCCC3(OCCO3)C2(C)C)cc(OC)c1OC.O=[N+]([O-])c1cc([N+](=O)[O-])c(O)c([N+](=O)[O-])c1 (centres undefined) the inhibition was inactive: 0.801%. With Cc1ccc(C(=O)OC2CN3CCC2CC3)cc1 (centres undefined) the inhibition was inactive: 11.4%. In the case of CC1CCC(C(C)C)C(OP(=O)(Nc2ccccn2)c2ccccc2)C1 (centres undefined), the inhibition is reported as inactive: -2.44%. For Cc1nn(-c2ccccc2)c2c1P(=O)(N1CCOCC1)N(C)C(c1ccccc1)=N2 (centres undefined), the inhibition was inactive: 6.62%. For CC1(CBr)Cn2c(nc3ccccc3c2=O)S1 (centres undefined), the inhibition was inactive: 0.839%. For O=[As](O)(c1ccccc1Br)c1ccccc1Br, the inhibition was inactive: -15.3%. In the case of CN(C(=O)Cc1ccc(Cl)c(Cl)c1)[C@@H]1CCCC[C@H]1N1CCCC1, the inhibition is reported as inactive: 5.89%. For CC(C)/C=N\N=C(\N)N[N+](=O)[O-], the inhibition was inactive: -4.81%. For COc1ccccc1CNC(=O)COC(=O)C(O)(c1ccccc1)c1ccccc1, the inhibition was inactive: -7.14%. In the case of O=[N+]([O-])c1cc([N+](=O)[O-])c(-c2cnn(-c3ccccc3)c2)c([N+](=O)[O-])c1, the inhibition is reported as inactive: -5.77%. With CC(C)(C)C(=O)NC(Sc1ncccn1)C(Cl)(Cl)Cl (centres undefined) the inhibition was inactive: -5.26%. In the case of Clc1n[nH]nc1-c1nn[nH][15n]1, the inhibition is reported as inactive: -5.83%. With CN(CCCl)Cc1cc(Cl)c(NC2=NCCN2)c(Cl)c1 the inhibition was inactive: -1.4%. In the case of CCOP(=O)(Nc1ccc(C)cn1)OCC, the inhibition is reported as inactive: -0.427%. With CCOP(=O)(NC(=NC(C)c1ccccc1)NC(C)c1ccccc1)OCC (centres undefined) the inhibition was inactive: 1.18%. For O=[N+]([O-])c1cc([N+](=O)[O-])c(-n2nnc3ccccc32)c([N+](=O)[O-])c1, the inhibition was inactive: -3.53%. With CCC1=CC2Cc3nc4ccc(Cl)cc4c(N)c3C(C1)C2 (centres undefined) the inhibition was inactive: 6.36%. In the case of O=P1(Nc2ccccn2)COc2ccccc2OC1, the inhibition is reported as inactive: 5.38%. In the case of CCOP(=O)(Nc1cccc2ccccc12)OCC, the inhibition is reported as inactive: 1.37%. For CCCOP(=S)(Nc1nc(N)cc(=O)[nH]1)OCCC, the inhibition was inactive: -3.82%. For Cc1ccc(C)c(NP(C)(=O)Oc2ccccc2)c1 (centres undefined), the inhibition was inactive: -20.1%. In the case of Nc1cccc2c([As](=O)(O)O)cccc12, the inhibition is reported as inactive: -6.87%. In the case of Cc1ccc(NCCc2c([N+](=O)[O-])cc([N+](=O)[O-])cc2[N+](=O)[O-])cc1, the inhibition is reported as inactive: 0.431%. For CP(=O)(Nc1cccc(Br)c1)Oc1ccccc1 (centres undefined), the inhibition was inactive: 6.43%. In the case of Cc1cc(C)cc(OP(C)(=O)Nc2ccccn2)c1 (centres undefined), the inhibition is reported as inactive: 2.68%. For CCOC(=O)c1ccc(NP(C)(=O)Oc2cc(C)cc(C)c2)cc1 (centres undefined), the inhibition was inactive: 16%. In the case of Cc1cc(C)cc(OP(C)(=O)Nc2ccc(C)cc2C)c1 (centres undefined), the inhibition is reported as inactive: 9.74%. In the case of O=[As](O)(c1cccc(O)c1)c1cccc(O)c1, the inhibition is reported as inactive: -3.16%. For Cc1cccc(OCC(=O)OC2CN3CCC2CC3)c1 (centres undefined), the inhibition was inactive: -13%. In the case of CS(=O)(=O)c1ccc(Cl)c(NC(=O)COC(=O)C(O)(c2ccccc2)c2ccccc2)c1, the inhibition is reported as inactive: -2.69%. In the case of COc1ccccc1OP(C)(=O)Nc1cccc(Br)c1 (centres undefined), the inhibition is reported as inactive: 7.53%. For COc1cc(C(=O)NCC2(N3CCOCC3)CCCCC2)cc(Cl)c1OC(C)C, the inhibition was inactive: 1.07%. With O=[As](O)(O)c1cccnc1 the inhibition was inactive: 0.14%. With O=C(OC1CN2CCC1CC2)c1ccc(Cl)cc1 (centres undefined) the inhibition was inactive: -0.156%. For CN(C(=O)Cc1ccc(Cl)c(Cl)c1)[C@H]1CC[C@@]2(CCCO2)C[C@@H]1N1CCCC1, the inhibition was inactive: 2.28%. With CC1=NCCc2c1[nH]c1ccccc21.O=[N+]([O-])c1cc([N+](=O)[O-])c(O)c([N+](=O)[O-])c1 the inhibition was inactive: -2.24%. With CN(C)C(=O)c1cc([N+](=O)[O-])cc2c1-c1c(cc([N+](=O)[O-])cc1[N+](=O)[O-])C2=O the inhibition was inactive: -8.38%. For O=[N+]([O-])c1ccc2c(c1)nnn2O, the inhibition was inactive: -4.83%. With CCOP1(=S)c2c(C)nn(CCC#N)c2N=C(c2ccc(F)cc2)N1C (centres undefined) the inhibition was inactive: -6.93%. In the case of CN(C(=O)Cc1ccccc1)[C@@H]1CC[C@]2(CCCO2)C[C@H]1N1CCCC1, the inhibition is reported as inactive: -2.76%. For N#CCCN(C(=O)COC(=O)C(O)(c1ccccc1)c1ccccc1)c1ccc(F)cc1, the inhibition was inactive: 1.49%. In the case of NC(=O)Nc1ccc([As](=O)(O)O)cc1, the inhibition is reported as inactive: 2.17%. For O=C(O)COc1ccc([As](=O)(O)O)cc1[N+](=O)[O-], the inhibition was inactive: -0.49%. For Nc1ccccc1[As](=O)(O)c1ccccc1, the inhibition was inactive: -0.419%. In the case of CS(=O)(=O)c1cc([N+](=O)[O-])c2no[n+]([O-])c2c1, the inhibition is reported as inactive: -1.22%. In the case of O=P(Nc1nccs1)(c1ccccc1)c1nc2ccccc2s1 (centres undefined), the inhibition is reported as inactive: 3.22%. In the case of O=P(Nc1nccs1)(Oc1ccccc1)Oc1ccccc1, the inhibition is reported as inactive: 4.52%. With O=C(O)c1cccc(Nc2c([N+](=O)[O-])cc([N+](=O)[O-])cc2[N+](=O)[O-])c1 the inhibition was inactive: -0.0289%. For CCOP1(=S)c2c(C)nn(CCC#N)c2N=C(c2ccccc2F)N1C (centres undefined), the inhibition was inactive: 15.1%. With Cc1cc(C)cc(OP(C)(N)=O)c1 (centres undefined) the inhibition was inactive: 1.37%. For O=[N+]([O-])c1cc([N+](=O)[O-])c(-c2ccn[nH]2)s1, the inhibition was inactive: -13%. For COc1ccc(OP(C)(=O)Nc2cccc(F)c2)cc1 (centres undefined), the inhibition was inactive: -7.06%. For CCN(CC)C(=S)SC(NC=O)C(Cl)(Cl)Cl (centres undefined), the inhibition was inactive: 14.2%. For CC(C)NC(=O)NP(=O)(Oc1ccccc1)Oc1ccccc1, the inhibition was inactive: 5.38%. With COc1ccccc1OP(C)(=O)Nc1cc(Cl)ccc1C (centres undefined) the inhibition was inactive: -3.87%. For CC(C)c1ccc(OP(=O)(Nc2ccccn2)Oc2ccccc2F)cc1 (centres undefined), the inhibition was inactive: -19.5%. In the case of Cc1ccc(NP(C)(=O)Oc2ccccc2)c(C)c1 (centres undefined), the inhibition is reported as inactive: 9.49%. In the case of COc1ccccc1OP(C)(=O)Nc1ccc(C)cc1 (centres undefined), the inhibition is reported as inactive: -4.97%. With ClCCSc1nnc(-c2cccnc2)o1 the inhibition was inactive: 0.956%. In the case of CCOC(=O)c1ccc(NP(C)(=O)Oc2ccccc2)cc1 (centres undefined), the inhibition is reported as inactive: -8.02%. With Cc1ccc2nc3c(c(C)c2c1)CC(C(Cl)Cl)S3 (centres undefined) the inhibition was inactive: 1.84%. With O=[N+]([O-])c1ccc2c(c1)C=Nc1ccccc1O2 the inhibition was inactive: 3.06%. In the case of Cc1cccc(C)c1OP(C)(N)=O (centres undefined), the inhibition is reported as inactive: 7.39%. With CC(C)(C)c1ccc(OP(C)(=O)Nc2ccc(SC(F)(F)F)cc2)cc1 (centres undefined) the inhibition was inactive: -17.7%. In the case of Cc1ccc(OP(=O)(Nc2ccc([N+](=O)[O-])cn2)Oc2ccc(C)cc2)cc1, the inhibition is reported as inactive: 8.9%. For C[As](=O)(O)c1cccc(C(=O)O)c1, the inhibition was inactive: -1.95%. For O=[As](O)(c1ccc(O)cc1)c1ccccc1O, the inhibition was inactive: -0.851%. For O=[N+]([O-])c1cc([N+](=O)[O-])c(Nc2cccnc2)c([N+](=O)[O-])c1, the inhibition was inactive: 3.89%. With COc1cc(I)ccc1[As](=O)(O)O the inhibition was inactive: -3.85%. In the case of COc1ccc2nc(NP(=O)(c3ccccc3)c3ccccc3)sc2c1, the inhibition is reported as inactive: 3.98%. With CCN(CC)CCCOC(=O)C(O)(c1ccccc1)c1ccccc1 the inhibition was inactive: 3.86%. With Cc1cc(=O)[nH]c(N[N+](=O)[O-])n1 the inhibition was inactive: 3.71%. In the case of O=C(OC1CN2CCC1CC2)C12CC3CC(CC(C3)C1)C2 (centres undefined), the inhibition is reported as inactive: 5.56%. In the case of Cc1c2c(nc3ccccc13)SC(C(Cl)Cl)C2 (centres undefined), the inhibition is reported as inactive: -0.953%. With CP(=O)(Nc1ccccn1)Oc1ccc(Cl)cc1 (centres undefined) the inhibition was inactive: -1.74%. In the case of CCC(C)N(CC(C)C)C(=S)SC(NC(C)=O)C(Cl)(Cl)Cl (centres undefined), the inhibition is reported as inactive: 9.22%. In the case of O=[N+]([O-])c1cc([N+](=O)[O-])c(O)c([N+](=O)[O-])c1.c1ccc(Oc2ccncc2)cc1, the inhibition is reported as inactive: 3.93%. For CCOC(=O)c1ccc(NP(C)(=O)Oc2ccc(OC)cc2)cc1 (centres undefined), the inhibition was inactive: 2.61%. With CCOC(=O)c1ccc(NC(=O)C(C)(CCl)SC)cc1 (centres undefined) the inhibition was inactive: -9.17%. For O=C(OC1CN2CCC1CC2)c1cccc([N+](=O)[O-])c1 (centres undefined), the inhibition was inactive: -11.2%. With CCOP(C)(=S)SCC(=O)NC(C)C(=O)O (centres undefined) the inhibition was inactive: -5.79%. For O=C(Nc1ccncc1[N+](=O)[O-])c1ccc([N+](=O)[O-])cc1[N+](=O)[O-], the inhibition was inactive: -3.69%. For Cc1cc(C)cc(OP(C)(=O)Nc2ccc(SC(F)(F)F)cc2)c1 (centres undefined), the inhibition was inactive: 4.69%. In the case of CCc1ccc(OP(C)(=O)N2CCN(c3ccc([N+](=O)[O-])cc3)CC2)cc1 (centres undefined), the inhibition is reported as inactive: 6.05%. In the case of CP(=O)(NC(=O)Nc1ccccc1)Oc1ccccc1 (centres undefined), the inhibition is reported as inactive: -19.9%. For O=C(COc1ccccc1)OC1CN2CCC1CC2 (centres undefined), the inhibition was inactive: 1.89%. For CP(=O)(Oc1ccccc1)OC(c1ccccc1)C(F)(F)F (centres undefined), the inhibition was inactive: -4.39%. For CP(=O)(Nc1ccc(SC(F)(F)F)cc1)Oc1ccc(Cl)cc1 (centres undefined), the inhibition was inactive: -7.76%. With Cc1cccc(C)c1OP(C)(=O)Nc1ccc(SC(F)(F)F)cc1 (centres undefined) the inhibition was inactive: -8.98%. For COP1(=S)c2c(C)nn(CCC#N)c2N=C(c2ccc(F)cc2)N1C (centres undefined), the inhibition was inactive: 13.4%. With O=[N+]([O-])c1ccc(Nc2ccc(Oc3ccc([N+](=O)[O-])cc3[N+](=O)[O-])cc2)c([N+](=O)[O-])c1 the inhibition was inactive: -1.39%. In the case of CP(=O)(Nc1ccccc1Br)Oc1ccccc1 (centres undefined), the inhibition is reported as inactive: -10.5%. With COc1ccccc1OP(C)(=O)Nc1ccccc1 (centres undefined) the inhibition was inactive: -6.94%. In the case of Cc1cc(SC(NC=O)C(Cl)(Cl)Cl)ncn1 (centres undefined), the inhibition is reported as inactive: 3.54%. In the case of O=P(Nc1ccccn1)(c1cccc2ccccc12)c1cccc2ccccc12, the inhibition is reported as inactive: 7.92%. In the case of CCOC(=O)Nc1cccc([As](=O)(O)O)c1, the inhibition is reported as inactive: 2.91%. With CP(=S)(Nn1cnnc1)Oc1ccccc1 (centres undefined) the inhibition was inactive: -12.1%. For Cc1cc(SC(NC(=O)c2ccccc2)C(Cl)(Cl)Cl)nc(C(C)C)n1 (centres undefined), the inhibition was inactive: -2.84%. With CCCCOc1ccc(C(=O)NCC2(N3CCCCC3)CCCCC2)cc1OC the inhibition was inactive: -10.7%. With CCOC(=O)Nc1ccc([As](=O)(O)O)c(O)c1 the inhibition was inactive: -7.77%.
